Measurements from patent publication US20030109503A1, “Pharmaceutical formulations comprising clavulanic acid alone or in combination with other beta-lactam antibiotics” (SmithKline Beecham p.l.c., priority 1995, published 2003).

Conditions: lungs of rats treated with amoxycillin alone or with clavulanate

Compound: CC1(C)S[C@@H]2[C@H](NC(=O)[C@H](N)c3ccc(O)cc3)C(=O)N2[C@H]1C(=O)O [Amoxycillin, amoxycillin]
- loss of active amoxycillin in the site of infection: no loss of active amoxycillin was detected
